Laboratory results from ChEMBL document CHEMBL5370523, “Clinically approved small-molecule drugs for the treatment of rheumatoid arthritis” (Eur J Med Chem, 2023).

By UniProt entry, the sequences of proteins in these tests, tags left out.
UniProt P23219, whole entry: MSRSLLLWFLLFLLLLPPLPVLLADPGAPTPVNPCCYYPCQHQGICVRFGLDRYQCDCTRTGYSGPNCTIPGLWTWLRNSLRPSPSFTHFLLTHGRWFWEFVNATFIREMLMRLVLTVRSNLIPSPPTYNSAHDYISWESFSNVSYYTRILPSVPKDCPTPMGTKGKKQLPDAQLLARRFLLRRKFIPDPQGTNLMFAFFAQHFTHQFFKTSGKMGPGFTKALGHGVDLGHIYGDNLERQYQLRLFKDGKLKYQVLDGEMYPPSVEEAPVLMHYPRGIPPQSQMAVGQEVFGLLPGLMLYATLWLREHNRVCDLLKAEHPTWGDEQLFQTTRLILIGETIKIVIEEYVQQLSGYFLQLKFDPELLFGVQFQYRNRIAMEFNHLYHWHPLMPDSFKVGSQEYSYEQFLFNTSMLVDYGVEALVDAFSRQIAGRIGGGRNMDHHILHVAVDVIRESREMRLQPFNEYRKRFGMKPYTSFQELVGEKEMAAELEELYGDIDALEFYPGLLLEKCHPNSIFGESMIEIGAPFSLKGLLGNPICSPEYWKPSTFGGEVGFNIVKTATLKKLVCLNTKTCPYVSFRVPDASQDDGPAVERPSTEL

Biological target: Prostaglandin G/H synthase 1 (Homo sapiens, UniProt P23219)
Format: cell-based, Platelet

IC50: 2200 nM
Structure (SMILES): O=C(O)CCc1nc(-c2ccccc2)c(-c2ccccc2)o1 [OXAPROZIN]
